According to paper PMC10740956, “A Multitarget Approach against Neuroinflammation: Alkyl Substituted Coumarins as Inhibitors of Enzymes Involved in Neurodegeneration” (Antioxidants, 2023):

Experiments:
hCA IX = hCA IX (Homo sapiens, UniProt Q16790); assay: stopped flow CO2 hydrase assay, hCA IX; type: biochemical; settings: mean of 3 different assays
hMAO-B = biological target: T1, hMAO-B (Homo sapiens, UniProt P27338); assay: hMAO-B inhibition, recombinant enzyme, kynuramine substrate, fluorescence; type: biochemical; settings: IC50 hMAO-A/IC50 hMAO-B
T1 construct: purchased Sigma-Aldrich

| Compound | Ki (hCA IX) [µM] | SI (selectivity index for hMAO-B over hMAO-A) (hMAO-B) |
| --- | --- | --- |
| C#CCOc1ccc2ccc(=O)oc2c1 [Compound 5, 7-(Prop-2-ynyloxy)-2H-chromen-2-one] | 1.35 | 1.99 |
| CCC#CCOc1ccc2ccc(=O)oc2c1 [Compound 7, 7-(Pent-2-yn-1-yloxy)-2H-chromen-2-one] |  | 1396 |
| C#CCCCOc1ccc2ccc(=O)oc2c1 [Compound 8, 7-(Pent-4-yn-1-yloxy)-2H-chromen-2-one] |  | 11.2 |
